Source: ChEMBL document CHEMBL1131253, “A pyridoxine cyclic phosphate and its 6-azoaryl derivative selectively potentiate and antagonize activation of P2X1 receptors” (J Med Chem, 1998)

Biological target: T1, P2X purinoceptor 3 (Rattus norvegicus, UniProt P49654)
T1 sequence (P49654 whole entry): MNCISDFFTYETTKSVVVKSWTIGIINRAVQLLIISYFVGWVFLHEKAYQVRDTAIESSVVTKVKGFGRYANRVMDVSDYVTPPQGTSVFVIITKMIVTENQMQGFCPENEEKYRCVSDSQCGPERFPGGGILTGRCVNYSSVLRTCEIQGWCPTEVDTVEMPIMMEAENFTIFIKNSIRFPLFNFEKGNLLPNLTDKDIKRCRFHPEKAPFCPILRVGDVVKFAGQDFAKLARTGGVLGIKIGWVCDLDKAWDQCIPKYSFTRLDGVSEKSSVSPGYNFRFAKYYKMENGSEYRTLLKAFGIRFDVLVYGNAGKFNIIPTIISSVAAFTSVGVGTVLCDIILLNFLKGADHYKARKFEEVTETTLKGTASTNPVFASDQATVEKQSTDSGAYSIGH
Test: Compound was tested in a functional ion channel assay of ATP-induced current at recombinant rat P2X3 receptor expressed in Xenopus oocytes.
Format: cell-based, Oocyte

Cc1nc(/N=N/c2cc(S(=O)(=O)O)ccc2S(=O)(=O)O)c(COP(=O)(O)O)c(C=O)c1O [ISOPPADS] showed an IC50 of 83.5 µM.
